Laboratory results published in patent US20150307519A1, “SMALL MOLECULES FOR RESTORING FUNCTION TO P53 CANCER MUTANTS” (THE REGENTS OF THE UNIVERSITY OF CALIFORNIA, priority 2014, published 2015).

How the values were obtained:
[1] = test system: Saos-2 cells expressing p53^R175H; settings: for reactivation of p53^R175H in osteosarcoma cell-based assay: FIG. 7, equimolar metal salt or metal salt alone, three days; for p53 R175H-dependent cancer cell cytotoxicity: 27 hours, FIGS. 5A-5C
p53 R175H DBD protein = target: T1, p53 R175H DBD protein (Homo sapiens, UniProt P04637, R175H); assay: Differential scanning fluorimetry (DSF) thermal stabilization of p53 R175H DBD; assay type: binding; settings: for effect on R175H DBD stability in DSF (qualitative): thiosemicarbazone with added metal salt, or metal salt alone
T1 construct: wild-type p53 protein DBD protein (residues 94-312 of the full length); made in house; host or cells: Escherichia coli Rosetta 2 (DE3), vector pSE420
Excerpt: Differential scanning fluorimetry (DSF) is a biophysical technique capable of identifying stabilizing or destabilizing physical interactions between protein and small chemical compounds by detecting changes in protein melting temperature (Tm) caused by such physical interactions. In DSF assays, small compounds that destabilize a protein decrease its Tm and small compounds that stabilize a protein increase its Tm. Small chemical compounds that stabilize p53 SRMMPs by physically interacting with them have broad potential as anti-cancer pharmaceuticals. This class of compounds could restore wild-type p53 protein functions of cell cycle arrest and apoptotic pathway activation in p53 SRMMP cancer cells because they have the potential to increase in such cells the population of active-configuration p53 SRMMP.
The importance of this aspect of the invention derives from the thermodynamic instability of p53 SRMMPs (as reflected in their relatively lower Tm than wild-type p53 protein) and the requirement for properly folded p53 SMRRP for input into the DSF SLS assay described in Example 2.
An equivalent volume of DMSO was used as a control. […] Sypro Orange stain (Bio-Rad, Hercules, Calif.) at 5,000× stock concentration was diluted to 5× concentration in 20 mM HEPES at pH 7.4 and added to each well of a 96-well plate. All SLS compounds were independently measured for fluorescence background to eliminate false positive results. […] All DSF assays were performed with a Touch RT-PCR system CFX96 (Bio-Rad) with the starting temperature of 4° C. by increasing the temperature of the plate 1.0° C. per min to 94° C. Fluorescence measurements were taken once every minute during all experiments. Tm values for each well, mean Tm values, and 95% confidence intervals were calculated with the program Prism 5 (GraphPad Software, La Jolla, Calif.) by fitting the raw fluorescence data to a Boltzmann sigmoidal curve.

[2] = test system: cancer cells with p53^R175H mutations; settings: Yu et al. Cancer Cell 21(2012); cited from earlier work

## [Cl][Cu][Cl] [CuCl2]
[1]
  reactivation of p53^R175H in osteosarcoma cell-based assay: substantially no effect
p53 R175H DBD protein
  effect on R175H DBD stability in DSF (qualitative): reduced the Tm

## [Cl][Fe][Cl] [Fe(II)Cl2]
[1]
  reactivation of p53^R175H in osteosarcoma cell-based assay: substantially no effect
p53 R175H DBD protein
  effect on R175H DBD stability in DSF (qualitative): reduced the Tm

## Cn1ncc2c(Nc3ccc(Br)cc3)nc(Nc3ccc(Br)cc3)nc21 [NSC11667]
[1]; 100 μM, 3 days
  reduction of cell proliferation of p53^R175H-expressing Saos-2 cells: 90%
p53 R175H DBD protein; 20 μM
  restoration of thermodynamic stability of R175H DBD relative to WT DBD: restores the thermodynamic stability of R175H DBD to the level of WT DBD
p53 R175H DBD protein; 20 μM compound
  Tm of R175H DBD in presence of compound: 39.22±0.13 °C
p53 R175H DBD protein; 20 μM compound, dose-dependent retest
  stabilization of R175H DBD (increase of Tm): about 11 °C

## C/C(=N\NC(=S)N(C)C)c1ccccn1 [NSC319725, reference compound]
[1]
  p53 R175H-dependent cancer cell cytotoxicity: marked
p53 R175H DBD protein; 20 μM, 40 μM and 80 μM
  thermodynamic stabilization of R175H DBD (qualitative): no stabilization
[2]
  restoring p53 activity to cancer cells: restoring p53 activity

## NS(=O)(=O)c1nc2nc[nH]c(=O)c2[nH]1 [NSC635448]
[1]; 1 μM, 3 days
  reduction of cell growth of p53^R175H-expressing Saos-2 cells: 80%
[1]
  p53 R175H-dependent cancer cell cytotoxicity: marked
p53 R175H DBD protein; 40 μM and 80 μM
  restoration of thermodynamic stability of R175H DBD relative to WT DBD: restores the thermodynamic stability of R175H DBD to the level of WT DBD
p53 R175H DBD protein; 80 μM compound
  Tm of R175H DBD in presence of compound: 43.50±0.07 °C
  stabilization of R175H DBD (increase of Tm): more than 15 °C

## O=C1C2CCN(CC2)C1(CO)CO [PRIMA-1, reference compound]
[1]; 50 μM (Cmax), 3 days
  proliferation and survival of p53^R175H-expressing Saos-2 cells (remaining): about 50%

## [Cl-].[Cl-].[Zn+2] [ZnCl2]
[1]
  reactivation of p53^R175H in osteosarcoma cell-based assay: substantially no effect
p53 R175H DBD protein
  effect on R175H DBD stability in DSF (qualitative): precipitate
